Measured values published in patent publication US20120114639A1, “COMPOSITIONS AND METHODS FOR INHIBITING VIRAL AND/OR BACTERIAL INFECTIONS” (priority 2010, published 2012).

What was measured:
[1] = system: HPV16; test: HPV16 PsV infection of HaCaT cells, luciferase assay; assay type: cell-based, human papillomavirus; details: HaCaT in CM, 24 hours in presence of inhibitor; 1 μM AG1478, 100 nM PD168393, 100 μM genistein, 1 μM PD173074, 100-600 nM cetuximab; 100 vge/cell
Protocol: FIG. 2. HPV16 and syndecan-1 release from the HaCaT cell plasma membrane is MMP dependent. (A, B) Immunoblot for syndecan-1 (polyclonal syndecan-1 Ab) after 24 hours at 37° C. in CM (A) or post starvation in SFM and after six hours at 37° C. in Tyrode's Buffer (B); immunoblot for HPV16 L1 released into CM post virus binding for indicated times (C) or 24 hours (E). (D) Gelatin zymography showing protease activity present in HaCaT cell CM alone or with binding of HPV16. (E-F) Effect of MMP inhibitors batimistat (BM) or marimastat (MM) at the indicated concentrations on HPV16 release into media as in panel C and densitometric quantification with AlphaEaseFC software (E) and relative infection levels (F). […] Infection was assayed by quantifying luciferase levels at 24 hours p.i. […] HPV16 infection was measured with luciferase assay. […]
FIG. 7. […] Cells were exposed to HPV16 PsV at 100 vge/cell for one hour at 4° C., then washed extensively and shifted to 37° C. in the presence of the indicated inhibitor in CM for 24 hours at which time they were analyzed for luciferase expression. […] (B-C) EGFR knockdown was accomplished using siRNA to EGFR and the percent of EGFR protein remaining in EGFR-siRNA transfected HaCaT cells was determined by immunoblot and compared by densitometry to EGFR levels in cells transfected with a negative control siRNA at 48 hours post transfection. […]

[2] = system: p-EGFR, p-KGFR and downstream effector p-ERK1/2; test: EGFR and KGFR signal activation, phospho-protein immunoblot in serum-starved HaCaT cells; assay type: cell-based, human; details: 10 minutes ligand exposure; 100 nM PD168393, 1 μM PD173074, 100 μM genistein, 100 μM daidzein, 600 nM cetuximab
Protocol: FIG. 6. […] (A-B) Immunoblot of p-EGFR, p-KGFR and downstream effector p-ERK1/2 following 10 minutes ligand exposure (listed at the left of each blot: EGF, KGF, HPV16 PsV; lane 2) in serum-starved HaCaT cells. Mock exposed cells were negative controls (lane 1); ligand controls included 10 ng/ml EGF and 10 ng/ml KGF exposure (10 minutes). […] Actin is detected as a loading control. (C-D) Immunoblot of nuclear cell fractions and confocal microscopy localization of p-ERK1/2 following EGF and HPV16 exposure in serum-starved HaCaT cells at indicated times post-exposure. (C) Immunoblot for p-ERK1/2 in nuclear fractions from exposed cells. (D) Immunofluorescent confocal microscopy for localization of p-ERK1/2 (red) in PsV exposed cells. DAPI was used as a nuclear marker and was pseudocolored green to facilitate efficient co-localization of p-ERK1/2 in the nucleus. Parameters of lasers intensities were kept constant during the imaging.
Subconfluent HaCaT cells were serum-starved for 3-4 hours in Tyrode's buffer containing 0.05% BSA. After adding ˜100 vge/cell HPV16 PsV, 10 ng/ml EGF or 10 ng/ml KFG, cells were incubated at 37° C. for 10 minutes before transferring to ice and solubilizing cells with RIPA buffer. […]

[3] = system: HaCaT cells; test: Cell cycle analysis by propidium iodide flow cytometry; assay type: cell-based, human; details: HaCaT cells in CM infected with HPV16, same inhibitor conditions as infection assays
Protocol: FIG. 7. GFR activation, serum components including GF, and EGFR are important for HPV16 infections. (A) Relative HPV16 infection of HaCaT cells in the presence of specific GFR and protein tyrosine kinase inhibitors. […] Cells were exposed to HPV16 PsV at 100 vge/cell for one hour at 4° C., then washed extensively and shifted to 37° C. in the presence of the indicated inhibitor in CM for 24 hours at which time they were analyzed for luciferase expression. Data are represented as mean±SEM of three experiments. (B-C) EGFR knockdown was accomplished using siRNA to EGFR and the percent of EGFR protein remaining in EGFR-siRNA transfected HaCaT cells was determined by immunoblot and compared by densitometry to EGFR levels in cells transfected with a negative control siRNA at 48 hours post transfection. Four separate transfections were analyzed (B) and HPV16 PsV infection levels were measured at 24 hours post infection (48 hours post transfection) in each (C). Error bars represent the average of triplicate luciferase readings from the four transfections. […] Infection was quantified by luciferase assay 24 hours post shift to 37° C. […] Infections were quantified by luciferase assay; bars represented the mean SEM of three individual experiments. […] The fractions of cells in G1 (1n), S (intermediate), and G2/M (2n) phases were expressed as percentages of the total. […]

## cetuximab: EGFR-specific monoclonal antibody that binds to the EGFR extracellular domain
[1]
  block of HPV16 infection / reduction of infectivity: 50%
[2]
  rapid phosphorylation of the target GFR and downstream p-ERK1/2 induced by GFs or HPV16: abrogated
[3]
  cell cycle distribution (G1, S, G2/M) versus no treatment: relatively similar
